The values below come from article PMC7247576.

Experiment [1] concerns the target FAM-labelled APE1NΔ35 (human APE1 without 35 N-terminal amino acid residues) (human) (UniProt P27695). Briefly: other fluorescence titration; 40 nM FAM-labelled APE1 form premixed with 400 nM incised AP-DNA (AP-DNA inc), titrated with unlabelled partner; binding buffer with 10 mM EDTA; apparent constants (EC50).
For experiment [2], the target named is FAM-labelled APE1NΔ61 (human APE1 without 61 N-terminal amino acid residues) (human) (UniProt P27695). Described as above.
For experiment [3] the target is unchanged. Briefly: other fluorescence titration; 40 nM FAM-labelled APE1 form premixed with 400 nM gap-DNA, titrated with unlabelled partner; binding buffer with 10 mM EDTA; apparent constants (EC50).
Experiment [4] concerns the target FAM-labelled APE1NΔ35 (human APE1 without 35 N-terminal amino acid residues) (human) (UniProt P27695). Briefly: other fluorescence titration; 40 nM FAM-labelled APE1 form premixed with 400 nM AP-DNA, titrated with unlabelled partner; binding buffer with 10 mM EDTA; apparent constants (EC50).
The target in experiment [5] is FAM-labelled APE1NΔ61 (human APE1 without 61 N-terminal amino acid residues) (human) (UniProt P27695). The description is as above.
Experiment [6] deals with FAM-labelled APE1NΔ35 (human APE1 without 35 N-terminal amino acid residues) (human) (UniProt P27695). Briefly: other fluorescence titration; 40 nM FAM-labelled APE1 form titrated with unlabelled partner, no DNA; 50 mM HEPES pH 8.0, 100 mM NaCl, 4 mM DTT; excitation 482 nm, emission 530 nm; apparent constants (EC50, four-parameter fit).
Experiment [7] addresses FAM-labelled APE1NΔ61 (human APE1 without 61 N-terminal amino acid residues) (human) (UniProt P27695). The description is as above.
The target is the same in experiment [8]. Briefly: FRET or BRET; 40 nM FAM-labelled APE1 form with TMR-labelled partner in the presence of 400 nM gap-DNA; binding buffer with 10 mM EDTA; change of E against no DNA.
Experiment [9] deals with FAM-labelled APE1NΔ35 (human APE1 without 35 N-terminal amino acid residues) (human) (UniProt P27695). Briefly: FRET or BRET; 40 nM FAM-labelled APE1 form with TMR-labelled partner in the presence of 400 nM incised AP-DNA (AP-DNA inc); binding buffer with 10 mM EDTA; change of E against no DNA. (BRET reads energy transfer from a luciferase to a nearby fluorophore.)
In experiment [10] the target is FAM-labelled APE1NΔ61 (human APE1 without 61 N-terminal amino acid residues) (human) (UniProt P27695). Described as above.
In experiment [11] the target is FAM-labelled APE1NΔ35 (human APE1 without 35 N-terminal amino acid residues) (human) (UniProt P27695). Briefly: FRET or BRET; 40 nM FAM-labelled APE1 form (donor) with TMR-labelled or unlabelled partner (acceptor), no DNA; E = 1 - Fda/Fd; 50 mM HEPES pH 8.0, 100 mM NaCl, 4 mM DTT.
In experiment [12] the target is FAM-labelled APE1NΔ61 (human APE1 without 61 N-terminal amino acid residues) (human) (UniProt P27695). The description is as above.
Experiment [13] addresses FAM-labelled APE1NΔ35 (human APE1 without 35 N-terminal amino acid residues) (human) (UniProt P27695). Briefly: FRET or BRET; 40 nM FAM-labelled APE1 form with TMR-labelled partner in the presence of 400 nM AP-DNA; binding buffer with 10 mM EDTA; change of E against no DNA.
In experiment [14] the target is FAM-labelled APE1NΔ61 (human APE1 without 61 N-terminal amino acid residues) (human) (UniProt P27695). The description is as above.

With “DNA polymerase β (rat) (from UniProt P06766 1-335) (enzyme)”, the EC50 in [1] was found to be 110 nM; in [2], 130 nM; in [3], 140 nM; in experiment [4], 91 nM; in experiment [5], 110 nM; in experiment [6], 97 nM. Further, the EC50 in [7] worked out at 120 nM.

As to “TMR-labelled DNA polymerase β (rat) (from UniProt P06766 1-335) (enzyme)”, the change in FRET efficiency E with gap-DNA in experiment [8] is -0.07. In addition, the change in FRET efficiency E with AP-DNA inc in experiment [9] is -0.08; in experiment [10], -0.09. Further, the FRET efficiency E was 0.16 in experiment [11] and 0.22 in experiment [12]. Further, the change in FRET efficiency E with AP-DNA in [13] and in experiment [14] was -0.08 in each case.

Broadly, the EC50 is the concentration needed to bring the measured effect to its halfway point.
